The assay deals with recombinant murine transferrin receptor 1 (murine) (UniProt Q62351).

For the substance “CGKRK fusion protein nanoparticles (CGKRK-linker-HFn) (designed binder)”, the cellular FITC fluorescence of GL261 cells incubated with FITC-labeled NPs, flow cytometry, normalized to cells without treatment (cellular uptake) came out at 7%.

The values are drawn from PMC8965725.
